The target of the test is Histamine H3 receptor (Cavia porcellus, UniProt Q9JI35). As to the kind of experiment: Compound was tested in vitro against histamine H3 receptor mediated inhibition of cholinergic neurogenic contractions in isolated guinea pig ileum.

Amino acid sequences for entries named in this document (tags omitted). A change or cut given only in a name is not applied to a line headed by its entry.
UniProt Q9JI35: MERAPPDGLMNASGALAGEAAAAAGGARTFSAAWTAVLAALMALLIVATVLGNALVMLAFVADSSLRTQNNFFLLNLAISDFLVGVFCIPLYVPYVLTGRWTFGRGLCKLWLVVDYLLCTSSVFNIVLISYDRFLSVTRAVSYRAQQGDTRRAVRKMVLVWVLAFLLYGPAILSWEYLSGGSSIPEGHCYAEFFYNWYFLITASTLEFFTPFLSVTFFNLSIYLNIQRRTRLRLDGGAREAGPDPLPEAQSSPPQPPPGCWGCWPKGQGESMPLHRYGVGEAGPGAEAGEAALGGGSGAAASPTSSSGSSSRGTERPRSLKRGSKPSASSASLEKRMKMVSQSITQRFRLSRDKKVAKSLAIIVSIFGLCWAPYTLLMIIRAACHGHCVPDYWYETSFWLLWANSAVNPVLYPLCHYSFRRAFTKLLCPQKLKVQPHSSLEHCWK

The structures appear in SMILES notation.

What is called pA2 is the negative logarithm of the molar antagonist concentration that doubles the agonist concentration needed for the same response. Regarding `O=[N+]([O-])c1ccc(OCCCN2CCC(Nc3nc4ccccc4s3)CC2)cc1`, the pA2 is 7.67.

The values are drawn from ChEMBL document CHEMBL1133103, “Design, synthesis, and structure-activity relationships of novel non-imidazole histamine H(3) receptor antagonists” (J Med Chem, 2000).
